Reference: patent publication US10385070B2, “Chroman-spirocyclic piperidine amides as modulators of ion channels” (VERTEX PHARMACEUTICALS INCORPORATED, priority 2011, dated 2019)

The chains behind the UniProt entries cited, without tags or fusion partners.
UniProt Q15858, whole entry: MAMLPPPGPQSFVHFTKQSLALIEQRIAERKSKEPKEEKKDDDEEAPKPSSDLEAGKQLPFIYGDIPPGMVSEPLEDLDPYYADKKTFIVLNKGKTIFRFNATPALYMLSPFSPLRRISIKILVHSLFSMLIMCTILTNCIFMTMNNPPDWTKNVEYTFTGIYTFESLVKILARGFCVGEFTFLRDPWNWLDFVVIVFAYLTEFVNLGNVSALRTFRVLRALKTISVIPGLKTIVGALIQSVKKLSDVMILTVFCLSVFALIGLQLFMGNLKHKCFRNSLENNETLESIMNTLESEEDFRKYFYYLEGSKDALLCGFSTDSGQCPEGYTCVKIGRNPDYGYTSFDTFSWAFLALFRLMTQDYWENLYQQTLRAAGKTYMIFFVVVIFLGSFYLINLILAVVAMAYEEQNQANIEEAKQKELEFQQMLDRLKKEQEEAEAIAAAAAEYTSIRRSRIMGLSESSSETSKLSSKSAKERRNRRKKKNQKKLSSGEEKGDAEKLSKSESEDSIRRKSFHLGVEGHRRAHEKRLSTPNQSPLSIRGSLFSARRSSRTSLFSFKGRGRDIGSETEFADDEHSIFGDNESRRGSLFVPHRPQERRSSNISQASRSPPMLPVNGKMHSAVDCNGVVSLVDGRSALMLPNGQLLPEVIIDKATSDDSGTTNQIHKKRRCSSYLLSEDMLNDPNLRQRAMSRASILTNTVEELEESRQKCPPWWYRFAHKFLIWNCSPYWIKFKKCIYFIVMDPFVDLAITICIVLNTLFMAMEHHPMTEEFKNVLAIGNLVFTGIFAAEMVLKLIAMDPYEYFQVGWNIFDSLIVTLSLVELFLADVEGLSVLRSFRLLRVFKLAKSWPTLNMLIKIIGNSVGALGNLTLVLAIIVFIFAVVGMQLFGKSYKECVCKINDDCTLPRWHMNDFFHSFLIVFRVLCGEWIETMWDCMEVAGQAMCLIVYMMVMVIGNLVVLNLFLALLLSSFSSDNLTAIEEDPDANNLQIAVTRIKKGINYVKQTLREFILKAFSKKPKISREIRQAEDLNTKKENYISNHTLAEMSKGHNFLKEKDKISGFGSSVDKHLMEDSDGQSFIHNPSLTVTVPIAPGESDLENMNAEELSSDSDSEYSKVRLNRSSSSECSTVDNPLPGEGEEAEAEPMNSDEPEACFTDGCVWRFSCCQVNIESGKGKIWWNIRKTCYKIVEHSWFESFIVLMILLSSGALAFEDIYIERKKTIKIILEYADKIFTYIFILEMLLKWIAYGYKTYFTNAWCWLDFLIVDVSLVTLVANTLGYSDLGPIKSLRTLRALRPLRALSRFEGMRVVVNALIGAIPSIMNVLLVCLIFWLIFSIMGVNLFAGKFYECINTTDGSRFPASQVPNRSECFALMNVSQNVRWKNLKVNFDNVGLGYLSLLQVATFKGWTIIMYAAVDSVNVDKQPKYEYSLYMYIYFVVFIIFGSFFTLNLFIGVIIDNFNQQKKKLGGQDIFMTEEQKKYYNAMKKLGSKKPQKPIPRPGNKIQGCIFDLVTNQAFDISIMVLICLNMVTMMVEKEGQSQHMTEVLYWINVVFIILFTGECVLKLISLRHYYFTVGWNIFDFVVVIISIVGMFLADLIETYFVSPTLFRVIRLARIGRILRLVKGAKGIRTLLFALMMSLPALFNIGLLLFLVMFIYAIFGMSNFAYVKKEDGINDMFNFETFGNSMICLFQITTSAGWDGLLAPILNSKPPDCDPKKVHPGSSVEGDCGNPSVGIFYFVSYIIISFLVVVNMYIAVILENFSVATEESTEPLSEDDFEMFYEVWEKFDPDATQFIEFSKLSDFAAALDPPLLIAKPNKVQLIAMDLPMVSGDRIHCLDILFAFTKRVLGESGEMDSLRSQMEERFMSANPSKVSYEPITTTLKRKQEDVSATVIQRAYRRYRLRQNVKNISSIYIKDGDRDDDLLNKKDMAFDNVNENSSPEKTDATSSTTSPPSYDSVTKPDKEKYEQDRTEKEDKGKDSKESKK

Biological target: human NaV subtype, like NaV 1.7 (Homo sapiens, UniProt Q15858)
Assay: E-VIPR optical membrane potential assay with electrical stimulation
Assay type: cell-based
Conditions: read-out: IC50 Binned Activity Data; active against one or more sodium channels; assay and NaV subtype not specified for Table 3
Text: Assays for Detecting and Measuring NaV Inhibition Properties of Compound E-VIPR Optical Membrane Potential Assay Method with Electrical Stimulation
Sodium channels are voltage-dependent proteins that can be activated by inducing membrane voltage changes by applying electric fields. The electrical stimulation instrument and methods of use are described in Ion Channel Assay Methods PCT/US01/21652, herein incorporated by reference and are referred to as E-VIPR. The instrument comprises a microtiter plate handler, an optical system for exciting the coumarin dye while simultaneously recording the coumarin and oxonol emissions, a waveform generator, a current- or voltage-controlled amplifier, and a device for inserting electrodes in well. Under integrated computer control, this instrument passes user-programmed electrical stimulus protocols to cells within the wells of the microtiter plate.
24 hours before the assay on E-VIPR, HEK cells expressing human NaV subtype, like NaV 1.7, are seeded in 384-well poly-lysine coated plates at 15,000-20,000 cells per well. Other subtypes are performed in an analogous mode in a cell line expressing the NaV of interest. […]
7) Read Plate on E-VIPR. […]

Q: For `CCS(=O)(=O)c1ccc(C(=O)N2CCC3(CC2)C[C@@H](OC(C)C)c2cc(F)ccc2O3)cc1`, which IC50 is on record?
A: < 2000 nM

Q: Which IC50 does the source give for `CCO[C@@H]1CC2(CCN(C(=O)c3ccc(S(=O)(=O)C(C)C)c(C#N)c3)CC2)Oc2ccc(F)cc21` here?
A: 2000 to 5000 nM
